The values that follow are results of earlier work, collected in US11007192B2, “Use of 5-amino-2,3-dihydro-1,4-phthalazinedione in the treatment of chronic progressive multiple sclerosis” (METRIOPHARM AG, priority 2016, dated 2021).

This data set deals with neuronal damage. The conditions noted are these: higher concentrations in vitro; cited from earlier work.

As for `Nc1cccc2c(=O)[nH][nH]c(=O)c12.[Na]` [5-amino-2,3-dihydro-1,4-phthalazinedione sodium salt], the apoptosis result is “apoptosis was activated”.
